From PubChem BioAssay AID488899 (Broad Institute, 2010) come the findings set out here.

Molecules are shown by their SMILES. This is a selection; strong and weak results do not stand in their true shares. The source made the active and inactive calls.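 The calls were made as follows: active = mean inhibition across replicates of 60% or more, whatever share of single replicates reaches that level; inconclusive = some that reach 60%, reason not given; inactive = mean inhibition across replicates below 60%.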

What is called inhibition is the drop in the measured response relative to a control, in per cent.

The nature of the test: MITF transcriptional activity suppression – cell-based, SK-MEL-5, single point, luciferase, primary screen (AID 488899). As to conditions: SK-MEL-5 TRPM1 promoter luciferase, 24 h; at 12.5 µM; stronger effect = higher value.
Regarding `O=C(NCC1(N2CCCCC2)CCCCC1)c1ccc(F)cc1`, the inhibition is inactive: -0.0175%.

`O=P1(N(CCCl)CCCl)SCCCS1`: the inhibition is inactive: 4.59%.

In the case of `CCCCOc1ccc(C(=O)NCC2(N3CCOCC3)CCCCC2)cc1`, the inhibition was inactive: -3.7%.

On to `COc1ccc(NC2CCN(CCc3ccccc3)CC2)c(OC)c1`, for which the inhibition is inactive: 3.26%.

Turning to `CCOC(=O)N1CCC(Nc2ccc(F)cc2)CC1`, the inhibition is inactive: 1.74%.

Consider `CCOc1ccc(C)cc1CN(CCCl)CCCl`, for which the inhibition was inactive: 11%.

Consider `O=C1CCN(Cc2ccccc2)CC1`, for which the inhibition is inactive: -2.58%.

As for `COc1cc(C(=O)NCC2(N(C)C)CCCCC2)ccc1OC(F)F`, the inhibition is inactive: -24.4%.

For the molecule `CCOC(=O)N1CCC(Nc2cccc(C)c2)CC1`, the inhibition was inactive: -6.09%.

Regarding `CSc1ccccc1C(=O)NCC1(N2CCCCC2)CCCCC1`, the inhibition is inactive: -1.35%.

As for `Cc1cccc(NC2(C#N)CCN(Cc3ccccc3)CC2)c1`, the inhibition is inactive: 1.86%.

Turning to `O=C(NCC1(N2CCCCC2)CCCCC1)c1ccc(=O)[nH]c1`, the inhibition is inactive: -9.78%.

As for `O=C(NCC1(N2CCCCC2)CCCCC1)c1cccs1`, the inhibition is inactive: -7.34%.

`COc1ccc(C(=O)NCC2(N3CCCCC3)CCCCC2)cc1`: the inhibition was inactive: -11.8%.

With `CC(C)(C)OC(=O)N1CCC(N(C(=O)c2ccccc2)c2ccc(F)cc2)CC1`, the inhibition was inactive: 10%.

With `COc1ccc(C(=O)NCC2(N3CCCCC3)CCCCC2)c(OC)c1OC`, the inhibition is inactive: 16.7%.

Turning to `CCOC(=O)N1CCC(Nc2ccc(OC)cc2)CC1`, the inhibition is inactive: 11.5%.

`O=C(OC1CN2CCC1CC2)C1c2ccccc2Oc2ccccc21` (stereo not drawn): the inhibition is inactive: 0.855%.

`O=C(NCC1(N2CCCCC2)CCCCC1)c1ccc(Cl)s1`: the inhibition is inactive: -5.16%.

As to `N#CC1(Nc2ccccc2)CCN(Cc2ccccc2)CC1`, the inhibition is inactive: -3.38%.

Turning to `COc1ccc(Cl)cc1C(=O)NCC1(N2CCOCC2)CCCCC1`, the inhibition is inactive: 4.89%.

Take `O=C(NCC1(N2CCOCC2)CCCCC1)c1cc2ccccc2o1`: the inhibition is inactive: 5.42%.

`O=C(NCC1(N2CCCCC2)CCCCC1)c1ccc(Cl)nc1`: the inhibition was inactive: -10.6%.

With `Cc1cc(C)cc(N(C(=O)c2ccccc2)C2CCN(C(=O)OC(C)(C)C)CC2)c1`, the inhibition is inactive: 22.4%.

Consider `COc1cc(OC)c(C(=O)NCC2(N(C)C)CCCCC2)cc1OC`, for which the inhibition is inactive: 5.31%.

Consider `O=C(NCC1(N2CCOCC2)CCCCC1)c1cc(F)c(F)cc1Cl`, for which the inhibition is inactive: -0.24%.

As for `COc1ccc(CN(CCCl)CCCl)cc1Cl`, the inhibition was inactive: 8.28%.

Regarding `CN(C)c1cccc(C(=O)NCC2(N3CCCCC3)CCCCC2)c1`, the inhibition was inactive: -3.69%.

For the molecule `CC(C)c1ccc(NC2CCN(C(=O)OC(C)(C)C)CC2)cc1`, the inhibition was inactive: -47.5%.

For `CCCOc1ccc(C(=O)NCC2(N(C)C)CCCCC2)cc1OC`, the inhibition was inactive: 4.73%.

As for `O=C(NCC1(N2CCCCC2)CCCCC1)c1cncc(Br)c1`, the inhibition is inactive: -6.07%.

As to `CN1CCC(Nc2cccc(F)c2)CC1`, the inhibition was inactive: -9.69%.

As for `O=C(NCC1(N2CCCCC2)CCCCC1)c1cccc([N+](=O)[O-])c1`, the inhibition was inactive: 4.58%.

Take `CSc1ccc(C(=O)NCC2(N3CCOCC3)CCCCC2)cc1`: the inhibition is inactive: -9.68%.

Consider `CCN1CCC(Nc2ccc(Cl)cc2)CC1`, for which the inhibition was inactive: -1.41%.

As to `N#CC1(Nc2ccccc2)CCN(CCc2ccccc2)CC1`, the inhibition was inactive: 1.51%.

`O=C(NCC1(N2CCCCC2)CCCCC1)c1ccc(OC(F)F)cc1`: the inhibition is inactive: -17%.

Consider `CN1CCN(CCOC(=O)C(O)(c2ccccc2)c2ccccc2)CC1`, for which the inhibition was inactive: -0.816%.

Take `CC(C)c1ccc(C(=O)NCC2(N3CCOCC3)CCCCC2)cc1`: the inhibition was inactive: -37.7%.

Take `COc1ccc(NC2CCN(C(=O)OC(C)(C)C)CC2)cc1`: the inhibition is inactive: 8.23%.

As for `COc1cc(C(=O)NCC2(N3CCCCC3)CCCCC2)ccc1OC(F)F`, the inhibition was inactive: -4.92%.

On to `O=C(NCC1(N2CCOCC2)CCCCC1)c1cc(=O)[nH]c2ccccc12`, for which the inhibition is inactive: 5.24%.

For the molecule `O=C(NCC1(N2CCCCC2)CCCCC1)c1cccc(C(F)(F)F)c1`, the inhibition was inactive: -2.44%.

Regarding `CC(C)(C)OC(=O)N1CCC(N(C(=O)c2ccccc2)c2ccc(Cl)cc2)CC1`, the inhibition is inactive: -0.319%.

Regarding `N#Cc1ccc(C(=O)NCC2(N3CCCCC3)CCCCC2)cc1`, the inhibition was inactive: 1.66%.

Consider `c1ccc(CN2CCC(Nc3ccccc3)CC2)cc1`, for which the inhibition is inactive: 2.99%.

`Cc1cc(N(CCCl)CCCl)ccc1C=O`: the inhibition is inactive: 2.14%.

As for `CCCN1CCC(Nc2cc(OC)cc(OC)c2)CC1`, the inhibition was inactive: 3.98%.

On to `CN(C)C1(CNC(=O)c2cccc(C#N)c2)CCCCC1`, for which the inhibition was inactive: 1.14%.

Consider `COc1ccc(C(=O)NCC2(N3CCOCC3)CCCCC2)cc1OC`, for which the inhibition is inactive: -13.6%.

As for `O=C(NCC1(N2CCOCC2)CCCCC1)c1cc(Br)ccc1Cl`, the inhibition was inactive: -2.37%.

Turning to `COc1cc(C(=O)NCC2(N3CCOCC3)CCCCC2)cc(OC)c1C`, the inhibition was inactive: -7.49%.

For the molecule `O=C(OC1CN2CCC1CC2)C1c2ccccc2C=Cc2ccccc21` (stereo not drawn), the inhibition is inactive: 0.619%.

`N/C(=N\O)c1c(N)no[n+]1[O-]`: the inhibition was inactive: 7.29%.

On to `CCOC(=O)N1CCC(Nc2ccc(C)cc2)CC1`, for which the inhibition is inactive: 4.21%.

Turning to `CCCOc1ccc(C(=O)NCC2(N(C)C)CCCCC2)cc1`, the inhibition was inactive: 9.59%.

For `CC(C)(C)OC(=O)N1CCC(Nc2ccccc2)CC1`, the inhibition was inactive: -6.69%.

Consider `O=C(O)C1(Nc2ccccc2)CCN(Cc2ccccc2)CC1`, for which the inhibition is inactive: 5.54%.

For `CCOc1ncccc1C(=O)NCC1(N2CCOCC2)CCCCC1`, the inhibition was inactive: 5.52%.

`CN1CCC(Nc2ccc(F)c(Cl)c2)CC1`: the inhibition is inactive: 6.09%.

With `CN1CCC(Nc2ccc(Cl)cc2)CC1`, the inhibition is inactive: -13.5%.

For the molecule `CCC(CO)(C(=O)OC1CN2CCC1CC2)c1ccccc1` (stereo not drawn), the inhibition is inactive: -1.1%.

For the molecule `COc1cc(OC)cc(C(=O)NCC2(N3CCOCC3)CCCCC2)c1`, the inhibition was inactive: 0.072%.

With `COc1cccc(C(=O)N(c2cc(C)cc(C)c2)C2CCN(C(=O)OC(C)(C)C)CC2)c1`, the inhibition is inactive: -1.17%.

Consider `Cc1ccc(NC2(C#N)CCN(Cc3ccccc3)CC2)cc1`, for which the inhibition was inactive: -1.51%.

Take `Cc1ccc(C(=O)NCC2(N3CCCCC3)CCCCC2)o1`: the inhibition was inactive: -0.456%.

For `Fc1ccccc1NC1CCN(Cc2ccccc2)CC1`, the inhibition was inactive: -4.42%.

Consider `CC(=O)N(c1ccccc1)C1CCNCC1`, for which the inhibition was inactive: 2.58%.

`O=C(NCC1(N2CCCCC2)CCCCC1)c1ccco1`: the inhibition was inactive: -7.42%.

Take `Cn1c(=O)[nH]cc(N(CCCl)CCCl)c1=O`: the inhibition is inactive: 13.7%.

`CN(C)c1ccc(C(=O)NCC2(N3CCCCC3)CCCCC2)cc1`: the inhibition is inactive: -11.8%.

Take `Cc1ccccc1NC1(C#N)CCN(Cc2ccccc2)CC1`: the inhibition was inactive: -11.2%.

In the case of `CCN1CCC(Nc2cccc(F)c2)CC1`, the inhibition is inactive: 4.29%.
